The numbers were not newly measured in patent US9926354B2, “Amyloid precursor protein (APP) based Ã#-secretase inhibitor peptides, and methods of use” (UNIVERSITY OF SOUTH FLORIDA, priority 2014, dated 2018), which cites them from elsewhere.

By UniProt entry, the sequences of proteins in these tests, tags left out. Residues count along the entry.
UniProt P56817, 46-501: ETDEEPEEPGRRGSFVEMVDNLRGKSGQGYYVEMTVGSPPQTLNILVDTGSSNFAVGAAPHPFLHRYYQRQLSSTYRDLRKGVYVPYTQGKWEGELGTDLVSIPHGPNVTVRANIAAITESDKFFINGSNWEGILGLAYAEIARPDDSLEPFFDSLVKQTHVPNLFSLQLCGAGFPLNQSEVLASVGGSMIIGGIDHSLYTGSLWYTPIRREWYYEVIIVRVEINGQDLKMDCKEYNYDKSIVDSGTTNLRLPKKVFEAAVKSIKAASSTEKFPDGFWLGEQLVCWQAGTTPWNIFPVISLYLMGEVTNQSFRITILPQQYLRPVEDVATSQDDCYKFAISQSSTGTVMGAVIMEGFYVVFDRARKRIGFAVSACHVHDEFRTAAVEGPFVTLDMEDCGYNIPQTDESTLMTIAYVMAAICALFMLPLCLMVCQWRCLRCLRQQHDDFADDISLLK

This series deals with BACE1 (Homo sapiens, UniProt P56817). Conditions: cited from earlier work.

In the case of EVNLA*AEF [OM99-2], the “ability to cross the BBB” value is listed as “too large (>18 amino acids residues) to cross the BBB”, the potency entry was “high level of potency” and the stability result is given as “not stable enough for use in therapeutic trials”.
